Source: ChEMBL document CHEMBL3632578, “Identification of β-Lapachone Analogs as Novel MALT1 Inhibitors To Treat an Aggressive Subtype of Diffuse Large B-Cell Lymphoma” (J Med Chem, 2015)

Columns and labels:
[1] = species: Homo sapiens; assay: Selectivity ratio, ratio of IC50 for caspase-8 (unknown origin) to IC50 for His-tagged human MALT1 (catalytic domain-339-719 aa)
[2] = species: Homo sapiens; assay: Selectivity ratio, ratio of IC50 for cathepsin B (unknown origin) to IC50 for His-tagged human MALT1 (catalytic domain-339-719 aa)

- Ratio IC50 [1]: 16
- Ratio IC50 [2]: 16
SMILES: CC1(C)CCC2=C(O1)c1ccc(C#N)cc1C(=O)C2=O
